Read-outs that look alike come from different tables or passages of the source.
B1: Mab 2F11 (antibody, V domains shown)
VH: QVQLKESGPGLVAPSQSLSITCTVSGFSLTTYDISWIRQSPGKGLEWLGVIWTDGGTNYNSPFMSRLSIRKDNSKSQVFLKMNRLQTDDTAIYYCVRDQRLYFDVWGAGTTVTVSS
VL: NIVMTQSPKSMSMSVGERVTLNCKASEDVNTYVSWYQQQPEQSPKLLIYGASNRYTGVPDRFTGGGSTTDFTLTISSVQAEDLADYFCGQSFSYPTFGTGTKLEIK
B2: Mab 2E10 (antibody, V domains shown)
VH: QVQLKESGPGLVAPSKSLSITCTVSGSSLDSFDISWIRQSPGKGLEWLGVIWTGGGTNYNSGFMSRLRITKDNSKSQVLLKMNSLQSDDTAIYYCVRDPRLYFDVWGAGTTVTVSS
VL: NIVMTQSPKSMSMSVGERVTLSCKASEDVVTYVSWYQQKPDQSPKLLIYGASNRYTGVPDRFTGSGSATDFTLTISSVQAEDLADYYCGQTFSYPTFGTGTKLEIK
B3: hMab 2F11-f12 (antibody, V domains shown)
VH: QVQLVQSGAEVKKPGSSVKVSCKASGFSLTTYDISWVRQAPGQGLEWMGVIWTDGGTNYNSPFMSRVTITKDESTSTAYMELSSLRSEDTAVYYCVRDQRLYFDVWGQGTTVTVSS
VL: DIQMTQSPSSLSASVGDRVTITCRASEDVNTYVSWYQQKPGKAPKLLIYGASSLQSGVPSRFSGSGSGTDFTLTISSLQPEDFATYYCGQSFSYPTFGQGTKLEIK

Assays:
Assay in all cases: cell-based or functional assay
[1] = target: T1, human wildtype CSF-1R (full-length) (human, UniProt P07333 20-972)
[2] = target: T1, human wildtype CSF-1R (full-length); remark: listed apart in the source
[3] = target: T1, human wildtype CSF-1R (full-length); remark: listed apart in the source

Binder	IC50 CSF-1R Phosphorylation (phospho/total CSF-1R ELISA on lysates of NIH3T3-CSF-1R cells stimulated with hu CSF-1) [1]	IC50 of inhibition of survival of human monocytes cultured with 150 ng/ml huCSF-1 (CellTiterGlo) [2]	IC50 of inhibition of survival of human monocytes cultured with 150 ng/ml huCSF-1 (CellTiterGlo) [3]
B1	0.219 µg/mL	0.08 µg/mL	
B2	0.752 µg/mL		
B3			0.09 µg/mL

From patent EP3108897A1 (F. Hoffmann-La Roche AG, dated 2016)
